By UniProt entry, the sequences of proteins in these tests, tags left out. Residues count along the entry.
UniProt Q02223, 1-54: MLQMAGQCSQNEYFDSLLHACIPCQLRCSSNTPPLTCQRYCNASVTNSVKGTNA

According to publication PMC13572498:

What was measured:
[1] = target: soluble biotinylated BCMA (recombinant BCMA-biotin) (UniProt Q02223)
[2] = target: soluble biotinylated BCMA (recombinant BCMA-biotin) (UniProt Q02223); test: SPR; Biacore S200; soluble biotinylated BCMA immobilised on Series S SA sensorchip (3500 RU); biNTe injected, single-cycle kinetics, 4-point series 0.1, 1, 10, 200 nM, 400 s injections, 400 s dissociation; PBS-P+

- EC50 measured against MM1.S cells in the presence of iNKT [1]: 0.0024 nM
- Kd [2]: 23.4 nM
Substance: bivalent BCMA bispecific iNKT engager (homodimeric, bivalent IgG-scFv; anti-BCMA C11D5.3 IgG fused C-terminally to anti-TCRVβ11 C21 scFv) (bispecific antibody)
